A value given as a limit tells only on which side of the number the result lay.

One assay has as its system U-251. The assay can be described thus: Antiproliferative activity against human U-251 assessed as cell viability incubated for 48 hrs by MTT assay.
In another assay the test system is U-87 MG. The assay can be described thus: Antiproliferative activity against human U-87 MG assessed as cell viability incubated for 48 hrs by MTT assay. Conditions: u-87mg atcc.

As a reminder, the IC50 is the concentration that gives 50% inhibition. Take `O=C(O)c1ccc(N(CCCl)CCCl)cc1`: the IC50 in the assay with U-251 and in the assay on U-87 MG was greater than 50 µM in each case.

The record behind these values is ChEMBL document CHEMBL6153079, “Discovery of noncovalent diaminopyrimidine-based Inhibitors for glioblastoma via a dual FAK/DNA targeting strategy” (Eur J Med Chem, 2025).
